Data from patent EP4800013A1, “PARG INHIBITOR” (Shanghai Qilu Pharmaceutical Research and Development …, priority 2023, dated 2025).

By UniProt entry, the sequences of proteins in these tests, tags left out.
UniProt Q86W56, whole entry: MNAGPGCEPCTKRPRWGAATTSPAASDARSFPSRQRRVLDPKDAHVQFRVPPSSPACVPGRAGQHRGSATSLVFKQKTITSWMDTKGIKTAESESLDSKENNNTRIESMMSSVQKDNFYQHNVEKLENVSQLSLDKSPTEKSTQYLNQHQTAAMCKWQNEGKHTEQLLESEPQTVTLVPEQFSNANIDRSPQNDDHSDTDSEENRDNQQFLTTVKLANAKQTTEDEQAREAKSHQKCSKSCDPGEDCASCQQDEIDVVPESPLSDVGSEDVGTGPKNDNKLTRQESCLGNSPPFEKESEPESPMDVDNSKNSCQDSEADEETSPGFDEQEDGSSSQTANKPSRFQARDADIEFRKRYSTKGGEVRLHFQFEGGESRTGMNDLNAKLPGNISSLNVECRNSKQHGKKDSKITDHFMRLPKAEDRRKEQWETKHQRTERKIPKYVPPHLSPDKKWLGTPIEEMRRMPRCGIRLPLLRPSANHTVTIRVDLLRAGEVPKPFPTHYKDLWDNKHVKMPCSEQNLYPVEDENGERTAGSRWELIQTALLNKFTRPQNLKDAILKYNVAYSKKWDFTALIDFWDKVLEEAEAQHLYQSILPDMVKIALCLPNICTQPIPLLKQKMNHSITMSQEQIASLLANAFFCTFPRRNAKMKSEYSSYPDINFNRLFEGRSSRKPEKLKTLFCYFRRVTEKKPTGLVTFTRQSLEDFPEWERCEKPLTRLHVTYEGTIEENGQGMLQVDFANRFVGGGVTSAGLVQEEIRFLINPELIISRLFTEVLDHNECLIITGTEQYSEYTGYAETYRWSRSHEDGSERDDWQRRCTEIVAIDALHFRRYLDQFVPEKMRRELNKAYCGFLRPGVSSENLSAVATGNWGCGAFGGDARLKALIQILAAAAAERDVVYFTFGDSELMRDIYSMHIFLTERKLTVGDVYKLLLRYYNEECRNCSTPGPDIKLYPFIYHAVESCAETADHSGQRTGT

How the values were obtained:
[1] = target: PARG (Homo sapiens, UniProt Q86W56); experiment: Enzymatic inhibitory activity against PARG, HTRF assay; format: biochemical; settings: read-out: IC50 against PARG enzyme, PARylated PARP1 protein as substrate, 60 minutes at room temperature, tested form: formate
[2] = tested on: KURAMOCHI cells; experiment: Inhibition of proliferation of KURAMOCHI cells (CellTiter-Glo, intracellular ATP); settings: read-out: IC50 against KURAMOCHI cells, incubated for 7 days, tested form: formate

Compound: C[C@H]1CN(c2cc(S(=O)(=O)NC3(C)CC3)cc3c2nc([C@@H]2CC(F)(F)CO2)n3-c2nnc(C(F)F)s2)C[C@H](C)N1
- IC50 [1]: 0.6 nM
- IC50 [2]: 2 nM
